Reference: patent US12378248B2

Key:
wild-type C57BL/6J mice [1] = details: 1 mg/kg ip; marked with reference 30; cited from earlier work
wild-type C57BL/6J mice [2] = experiment: Hypothermia (Tb by telemetry) after ip dosing; details: 1 mg/kg ip; average from dosing to 60 min; mean±SD
wild-type C57BL/6J mice [3] = experiment: Locomotor activity by telemetry after ip dosing; details: 1 mg/kg ip; average from dosing to 60 min; mean±SD

## OC[C@H]1O[C@@H](n2cnc3c(NC4CCCC4)ncnc32)[C@H](O)[C@@H]1O
wild-type C57BL/6J mice [1]
  ARs causing hypothermia: A3AR > A1AR^30
wild-type C57BL/6J mice [2]
  Tb (° C.): 32.4 ± 0.5 °C
wild-type C57BL/6J mice [3]
  Activity (counts): 1.5 ± 0.5 counts
